What was measured:
human sEH = human sEH (Homo sapiens (Human), UniProt P34913)
[1] = Experimental logP by HPLC method

Sequences of proteins named here, by UniProt entry; tags and fusion partners are left off.
UniProt P34913, whole entry: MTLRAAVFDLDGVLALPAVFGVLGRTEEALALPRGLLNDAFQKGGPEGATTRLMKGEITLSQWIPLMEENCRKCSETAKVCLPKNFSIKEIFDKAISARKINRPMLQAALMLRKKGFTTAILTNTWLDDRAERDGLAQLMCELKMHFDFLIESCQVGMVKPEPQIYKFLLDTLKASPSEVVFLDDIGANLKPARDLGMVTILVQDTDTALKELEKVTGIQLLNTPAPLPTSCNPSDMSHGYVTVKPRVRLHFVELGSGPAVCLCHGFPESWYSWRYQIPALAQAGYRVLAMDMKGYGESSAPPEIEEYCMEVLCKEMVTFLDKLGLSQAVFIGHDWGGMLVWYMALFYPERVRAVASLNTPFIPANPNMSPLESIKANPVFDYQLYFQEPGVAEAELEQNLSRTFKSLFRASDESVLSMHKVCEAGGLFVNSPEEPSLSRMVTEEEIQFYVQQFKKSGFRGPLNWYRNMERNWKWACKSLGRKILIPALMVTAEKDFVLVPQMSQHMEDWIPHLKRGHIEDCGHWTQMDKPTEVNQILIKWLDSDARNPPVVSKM

| SMILES | t1/2 (min) human sEH (human sEH) [min] | chromatographic logP [1] |
| --- | --- | --- |
| O=C(Nc1ccc(C(F)(F)F)cc1)NC1CCN(C(=O)C2CCOC2)CC1 (stereo not shown) [Compound 18, 1-(1-(tetrahydrofuran-3-carbonyl)piperidin-4-yl)-3-(4-(trifluoromethyl)phenyl)urea] | 10 |  |
| O=C(Nc1ccc(C(F)(F)F)cc1)NC1CCN(C(=O)c2ccoc2)CC1 [Compound 10, 1-(1-(furan-3-carbonyl)piperidin-4-yl)-3-(4-(trifluoromethyl)phenyl)urea] |  | 3.5 |
| O=C(Nc1ccc(C(F)(F)F)cc1)NC1CCN(C(=O)C2CCOCC2)CC1 [Compound 9, 1-(1-(tetrahydro-2H-pyran-4-carbonyl)piperidin-4-yl)-3-(4-(trifluoromethyl)phenyl)urea] |  | 3.16 |
| O=C(Nc1ccc(OC(F)(F)F)cc1)NC1CCN(C(=O)C2=COCC2)CC1 [Compound 5, 1-(1-(4,5-dihydrofuran-3-carbonyl)piperidin-4-yl)-3-(4-(trifluoromethoxy)phenyl)urea] |  | 3.49 |
| O=C(Nc1ccc(OC(F)(F)F)cc1)NC1CCN(C(=O)c2ccoc2)CC1 [Compound 3, 1-(1-(furan-3-carbonyl)piperidin-4-yl)-3-(4-(trifluoromethoxy)phenyl)urea] |  | 3.63 |
| Cc1occc1C(=O)N1CCC(NC(=O)Nc2ccc(C(F)(F)F)cc2)CC1 [Compound 13, 1-(1-(2-methylfuran-3-carbonyl)piperidin-4-yl)-3-(4-(trifluoromethyl)phenyl)urea] |  | 4.19 |
| O=C(Nc1ccc(OC(F)(F)F)c(F)c1)NC1CCN(C(=O)C2CCCOC2)CC1 (stereo not shown) [Compound 27] |  | 4.09 |
| O=C(Nc1ccc(OC(F)(F)F)cc1)NC1CCN(C(=O)C2CCCOC2)CC1 (stereo not shown) [Compound 8, 1-(1-(tetrahydro-2H-pyran-3-carbonyl)piperidin-4-yl)-3-(4-(trifluoromethoxy)phenyl)urea] |  | 3.42 |
| Cc1ccoc1C(=O)N1CCC(NC(=O)Nc2ccc(OC(F)(F)F)cc2)CC1 |  | 4.48 |
| O=C(Nc1ccc(OC(F)(F)F)cc1)NC1CCN(C(=O)c2cc[nH]c2)CC1 [Compound 2, 1-(1-(1H-pyrrole-3-carbonyl)piperidin-4-yl)-3-(4-(trifluoromethoxy)phenyl)urea] |  | 3.34 |

From patent US10377744B2, “Potent soluble epdxide hydrolase inhibitors” (Eicosis, LLC, priority 2014, dated 2019)
